System: STAT5 phosphorylation in lymphocytes
Test: flow cytometry of STAT5 phosphorylation in lymphocytes at various time points after administration in mice
Assay type: in vivo
Conditions: after administration to mice
Protocol: RSLAIL-2 is generally referred to as long-acting. For the purposes herein, the long acting nature of an IL-2Rβ biased agonist is typically determined using flow cytometry to measure STAT5 phosphorylation in lymphocytes at various time points after administration of the agonist to be evaluated in mice. As a reference, the signal is lost by around 24 hours with IL-2, but is sustained for a period greater than that for a long-acting IL-2Rβ-biased agonist.

IL-2: interleukin-2 cytokine, used as the reference standard [reference compound]
time by which STAT5 phosphorylation signal is lost: around 24 hours
